The subject of the data set is rats. The settings on record: rat, in vivo, sc.

Where two headings read alike, the source gives them in different places.

This note sets out measurements from US8906868B2, “Aminoglycoside derivatives” (Rempex Pharmaceuticals, Inc., priority 2010, dated 2014).

For Gentamicin C1a [reference compound], the “Histopathology Results After 7 days of Dosing” value is listed as “No Change” (30 mg/kg/day), “No Change” (100 mg/kg/day) and “Severe Nephrosis” (300 mg/kg/day). The “Histopathology Results After 14 days of Dosing” value is, setting by setting: (30 mg/kg/day) “Minimal Nephrosis”; (100 mg/kg/day) “Mild to Moderate Nephrosis”.
